Sequences of proteins named here, by UniProt entry; tags and fusion partners are left off.
UniProt P10415, whole entry: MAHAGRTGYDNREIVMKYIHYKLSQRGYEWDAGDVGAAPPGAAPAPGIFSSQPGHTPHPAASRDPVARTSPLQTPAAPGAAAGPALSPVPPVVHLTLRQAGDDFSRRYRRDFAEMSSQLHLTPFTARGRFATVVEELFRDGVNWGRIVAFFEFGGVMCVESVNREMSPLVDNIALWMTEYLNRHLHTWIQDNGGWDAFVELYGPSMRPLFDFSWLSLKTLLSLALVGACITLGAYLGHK

According to ChEMBL document CHEMBL1142517, “Discovery of an orally bioavailable small molecule inhibitor of prosurvival B-cell lymphoma 2 proteins” (J Med Chem, 2008):

Target: Apoptosis regulator Bcl-2 (Homo sapiens, UniProt P10415)
Assay: Displacement of fluorescein labeled Bax peptide from Bcl2 by fluorescence polarization assay

SMILES: CC1(C)CCC(c2ccc(Cl)cc2)=C(CN2CCN(c3ccc(C(=O)NS(=O)(=O)c4ccc(N[C@H](CCN5CCOCC5)CSc5ccccc5)c(S(=O)(=O)C(F)(F)F)c4)cc3)CC2)C1 [NAVITOCLAX]
- Ki: < 1 nM
